This is an account of results in paper PMC7723054.

Common to all, as to test: FOREST: bead pull-down of RNA structure library v1, barcode microarray; U1A/LIN28A: 20 mM HEPES pH 7.5, 80 mM KCl, 20 mM NaCl, 10% glycerol, 2 mM DTT, 0.1 ug/uL BSA, 4 C; BG4/CIRBP/DHX36: 10 mM Tris-HCl pH 7.5, 100 mM KCl (or LiCl),; high values mean tight binding
For experiment [1], the target named is T1, LIN28A (human?, UniProt Q9H9Z2 1-209).
T1 sequence: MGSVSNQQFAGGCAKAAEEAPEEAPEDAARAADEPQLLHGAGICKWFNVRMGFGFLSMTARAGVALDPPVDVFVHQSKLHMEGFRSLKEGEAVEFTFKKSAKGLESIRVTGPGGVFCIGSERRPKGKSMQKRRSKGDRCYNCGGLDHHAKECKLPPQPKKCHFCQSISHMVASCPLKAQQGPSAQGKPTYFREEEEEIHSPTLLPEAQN

The target in experiment [2] is T2, CIRBP (Homo sapiens, UniProt Q14011 1-172).
T2 sequence: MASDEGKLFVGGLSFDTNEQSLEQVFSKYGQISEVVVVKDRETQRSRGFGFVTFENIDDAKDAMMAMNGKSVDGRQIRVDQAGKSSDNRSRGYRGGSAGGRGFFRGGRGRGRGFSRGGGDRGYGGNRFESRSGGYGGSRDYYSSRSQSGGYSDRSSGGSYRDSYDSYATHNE

Experiment [3] has as its target T3, DHX36 (Homo sapiens, UniProt Q9H2U1 1-1008).
T3 sequence: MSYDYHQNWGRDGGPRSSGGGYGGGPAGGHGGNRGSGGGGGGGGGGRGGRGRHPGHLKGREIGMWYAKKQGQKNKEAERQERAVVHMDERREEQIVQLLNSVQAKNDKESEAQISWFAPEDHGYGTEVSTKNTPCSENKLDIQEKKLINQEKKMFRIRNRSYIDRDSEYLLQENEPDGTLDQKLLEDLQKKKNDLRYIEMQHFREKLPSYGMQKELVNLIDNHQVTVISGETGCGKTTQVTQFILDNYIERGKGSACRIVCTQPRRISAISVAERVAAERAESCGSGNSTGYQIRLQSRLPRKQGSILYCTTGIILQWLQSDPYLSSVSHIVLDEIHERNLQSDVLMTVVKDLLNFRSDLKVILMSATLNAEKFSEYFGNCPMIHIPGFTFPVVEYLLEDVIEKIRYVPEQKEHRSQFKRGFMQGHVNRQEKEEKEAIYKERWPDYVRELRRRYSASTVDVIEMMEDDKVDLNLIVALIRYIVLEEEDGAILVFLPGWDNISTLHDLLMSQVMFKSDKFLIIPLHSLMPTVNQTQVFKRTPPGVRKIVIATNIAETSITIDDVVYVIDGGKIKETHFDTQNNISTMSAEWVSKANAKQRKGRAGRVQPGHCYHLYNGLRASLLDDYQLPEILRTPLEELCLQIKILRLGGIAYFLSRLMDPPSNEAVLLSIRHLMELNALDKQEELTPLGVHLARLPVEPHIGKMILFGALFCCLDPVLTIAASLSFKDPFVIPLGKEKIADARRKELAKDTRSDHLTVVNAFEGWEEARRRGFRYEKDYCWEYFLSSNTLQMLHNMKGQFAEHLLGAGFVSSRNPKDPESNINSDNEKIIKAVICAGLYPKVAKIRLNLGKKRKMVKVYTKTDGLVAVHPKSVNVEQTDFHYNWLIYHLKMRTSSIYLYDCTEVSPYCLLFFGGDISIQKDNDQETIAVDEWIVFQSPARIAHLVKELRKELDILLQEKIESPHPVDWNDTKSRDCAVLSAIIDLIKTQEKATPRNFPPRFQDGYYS

The list shows a part of the results.

B1: hsa-mir-620 (structured_RNA)
RNA: GGGAACCAUGACGGUCGCGGGUUUUAUGGGUGUACGAAGUUUCAGCCCGUAUAUAUAUAUAUAUAUAUAUAGAUAUCUCCAUAUAUAUGGGCUGAAGCUUCGUGCAC
For the molecule B1, the binding signal in experiment [1] is -0.299 z-score; in experiment [2], -0.861 z-score; in experiment [3] it was 0.541 z-score.

B2: hsa-mir-1273h (structured_RNA)
RNA: GGGAAAGCGUGACAGCCGCUGAGAUUCGGGUGUACGAAGUUUCAGCGCAGUGUCGUGGUCACAGCUUGCUGCGCUGAAGCUUCGUGCAC
Turning to B2, the binding signal in experiment [1] was -0.346 z-score; in experiment [2], -0.745 z-score; in experiment [3], -0.617 z-score.

B3: hsa-mir-520a (structured_RNA)
RNA: GGGAAACCUGGUCACGGCUGCCGAAUUAGGUGUACGAAGUUUCAGCCUUUCUGUUGUCUGAGAGAAAAGAAAGGCUGAAGCUUCGUGCAC
Take B3: the binding signal is -0.32 z-score in experiment [1], 0.00617 z-score in experiment [2] and -0.572 z-score in experiment [3].

B4: hsa-mir-659 (structured_RNA)
RNA: GGGAAGGAUACUUGGGCAGUGAUCUAUAGGUGUACGAAGUUUCAGCCAAGGAAGAGUCACAGUCUCUUCCUUGGCUGAAGCUUCGUGCAC
B4: the binding signal in experiment [1] was -0.312 z-score; in experiment [2] it was 0.374 z-score; in experiment [3], -0.344 z-score.

B5: NEAT1_ParasoR_ID23 (structured_RNA)
RNA: GGGACCCACAAGGAGGAUCAUAUGUUUUGGUGUACGAAGUUUCAGCGACAUAUAAUCAUGUAUAAUUUUGUCGCUGAAGCUUCGUGCAC
B5: the figures for the binding signal in experiment [1], in experiment [2] and in experiment [3] were -0.353 z-score, -0.564 z-score and -1.25 z-score, respectively.

B6: hsa-mir-3196 (structured_RNA)
RNA: GGGAGACAGGUGUCUUAAGGACUAGGUGGGUGUACGAAGUUUCAGCCCUCCCCCAGUGCCAGGGCUGAAGCUUCGUGCAC
Take B6: the binding signal in experiment [1] is -0.325 z-score; in experiment [2], 0.515 z-score; in experiment [3], 0.314 z-score.

B7: hsa-mir-3908 (structured_RNA)
RNA: GGGAAAGUAGCAAAGCCGCUGUCAAGCGGGUGUACGAAGUUUCAGCGUUUCUAAAAAAAUAAAAAGUUAAAAAAAUUUAUGUUAACGUGUAAUGUGUUUACUAAUUUUUUUUUUUUUUUUUGGAGACGCUGAAGCUUCGUGCAC
In the case of B7, the results for the binding signal in experiment [1], in experiment [2] and in experiment [3] were -0.31 z-score, 0.66 z-score and -0.135 z-score, respectively.

B8: hsa-mir-6827 (structured_RNA)
RNA: GGGAAAGUUACGGCGGUCAGCUUCAAACGGUGUACGAAGUUUCAGCCUGUGCUGUCUCUGAGCACCGGCUGAAGCUUCGUGCAC
Take B8: the binding signal was -0.354 z-score in experiment [1], 1.3 z-score in experiment [2] and 0.011 z-score in experiment [3].

B9: hsa-mir-3182 (structured_RNA)
RNA: GGGAAAAGCUUGUUGACGCCAUUCCCGCGGUGUACGAAGUUUCAGCAGUCCGUGCAUCCGCCCUUCGAUGCUUGGGUUGCUGAAGCUUCGUGCAC
Consider B9, for which the binding signal in experiment [1] is -0.326 z-score; in experiment [2], -0.174 z-score; in experiment [3], -0.359 z-score.

B10: hsa-mir-1180 (structured_RNA)
RNA: GGGAACAUUCAACGAGGACGCCGAAUGGGGUGUACGAAGUUUCAGCGGAAUAGUGCUCCUGGUUGUUUCGCUGAAGCUUCGUGCAC
Consider B10, for which the binding signal in experiment [1] was -0.328 z-score; in experiment [2], -0.217 z-score; in experiment [3], -0.0107 z-score.

B11: hsa-mir-3188 (structured_RNA)
RNA: GGGAGCCGAACGUACGUUUUCAGCUAUGGGUGUACGAAGUUUCAGCUCCCCUAGCGCGCCUUCUGGAGAGCUGAAGCUUCGUGCAC
For the molecule B11, the values for the binding signal in experiment [1], in experiment [2] and in experiment [3] were -0.346 z-score, -0.295 z-score and -0.372 z-score, respectively.

B12: hsa-mir-3529 (structured_RNA)
RNA: GGGACCAAUAGGCCAGACGUUCGCAAUUGGUGUACGAAGUUUCAGCUGUUGAGCGCAGUAAGACAACAGCUGAAGCUUCGUGCAC
As for B12, the binding signal in experiment [1] was -0.307 z-score; in experiment [2] it was 0.357 z-score; in experiment [3], -0.323 z-score.

B13: hsa-mir-1273e (structured_RNA)
RNA: GGGAAAGACGACGCUGGUUGUGACCUUCGGUGUACGAAGUUUCAGCUGGAGGCUGCAGUGAGCCGAGAUCGAGCCACUGUACUCCAGCUGAAGCUUCGUGCAC
Consider B13, for which the results for the binding signal in experiment [1], in experiment [2] and in experiment [3] were -0.326 z-score, 0.471 z-score and 0.0165 z-score, respectively.

B14: hsa-mir-92a-2 (structured_RNA)
RNA: GGGAAUCGAGGUAGUUACGACUCGCCUUGGUGUACGAAGUUUCAGCAUUACUUGUGUUCUAUAUAAAGUAUUGCUGAAGCUUCGUGCAC
For the molecule B14, the binding signal is -0.308 z-score in experiment [1], -1.27 z-score in experiment [2] and -0.942 z-score in experiment [3].

B15: hsa-mir-646 (structured_RNA)
RNA: GGGAAAUUACGAGGUGAUGCUGUGGCGCGGUGUACGAAGUUUCAGCGCUUUUCACCUGUGAUCCCAGGAGAGGAAGCGCUGAAGCUUCGUGCAC
Consider B15, for which the results for the binding signal in experiment [1], in experiment [2] and in experiment [3] were -0.337 z-score, 1.13 z-score and 0.163 z-score, respectively.

B16: hsa-mir-4302 (structured_RNA)
RNA: GGGAACGGAUUGCGUACCUGCAAACUGAGGUGUACGAAGUUUCAGCCGAGGUGGGCUGAAGCUUCGUGCAC
On to B16, for which the binding signal is -0.334 z-score in experiment [1], -0.828 z-score in experiment [2] and -1.62 z-score in experiment [3].

B17: NEAT1_ParasoR_ID45 (structured_RNA)
RNA: GGGAAGAGAAACCAUGCAAUUACAGCAGGGUGUACGAAGUUUCAGCUGUAUGGAUAGACCCCAUUUUGUUUAUUCACACAGCUGAAGCUUCGUGCAC
In the case of B17, the results for the binding signal in experiment [1], in experiment [2] and in experiment [3] were -0.327 z-score, -1.39 z-score and -0.168 z-score, respectively.

B18: hsa-mir-339 (structured_RNA)
RNA: GGGAAAGCGAGCCAUCGACGUUAUAACCGGUGUACGAAGUUUCAGCCUCACGUGUGCCUGCCUGUGAGGCUGAAGCUUCGUGCAC
Regarding B18, the binding signal in experiment [1] was -0.312 z-score; in experiment [2] it was -0.395 z-score; in experiment [3], -0.719 z-score.

B19: hsa-mir-3177 (structured_RNA)
RNA: GGGAAACUCAAUAUCAACGGCCGGUCCGGGUGUACGAAGUUUCAGCGGCGCUGUCUUGAGACAUUCGCGCAGUGCAGCUGAAGCUUCGUGCAC
B19: the binding signal in experiment [1] was -0.32 z-score; in experiment [2], -0.595 z-score; in experiment [3], -1.44 z-score.

B20: hsa-mir-3939 (structured_RNA)
RNA: GGGAAAGACAAUGGCCAGUCUGCGCGUAGGUGUACGAAGUUUCAGCCGUGCACGUACCUGUCACAUGUGUACGGCUGAAGCUUCGUGCAC
As to B20, the binding signal in experiment [1] was -0.359 z-score; in experiment [2], -0.339 z-score; in experiment [3], 0.0143 z-score.

B21: hsa-mir-374a (structured_RNA)
RNA: GGGAACAGGCGACCACCAGAGUGAGUAAGGUGUACGAAGUUUCAGCUAAGUGUUAUAGCACUUAGCUGAAGCUUCGUGCAC
Consider B21, for which the binding signal in experiment [1] was -0.342 z-score; in experiment [2], 0.584 z-score; in experiment [3] it was -0.916 z-score.

B22: hsa-mir-548s (structured_RNA)
RNA: GGGAAACAGAGCCUGAGAGCGCAGAGUGGGUGUACGAAGUUUCAGCCCAUUAUUUUUAAUAAUUAUAAUAAUGGGCUGAAGCUUCGUGCAC
For B22, the results for the binding signal in experiment [1], in experiment [2] and in experiment [3] were -0.329 z-score, -0.0567 z-score and 0.491 z-score, respectively.

B23: PARIS_ID29 (structured_RNA)
RNA: GGGAAAGCUGUUGCACUAGACAGUCCUCGGUGUACGAAGUUUCAGCGCCAAAAUAGAAUAAUGUUGGUGCUGAAGCUUCGUGCAC
B23: the figures for the binding signal in experiment [1], in experiment [2] and in experiment [3] were -0.323 z-score, 0.00506 z-score and -0.0337 z-score, respectively.

B24: hsa-mir-605 (structured_RNA)
RNA: GGGAACCAACUGGAAAUCUCUGCCUAAUGGUGUACGAAGUUUCAGCUUCUCCUUGGGAAAAACAGAGAAGCUGAAGCUUCGUGCAC
B24: the binding signal in experiment [1] was -0.299 z-score; in experiment [2], 0.707 z-score; in experiment [3], 0.544 z-score.

B25: hsa-mir-892b (structured_RNA)
RNA: GGGAAGGGUCGAACUAGUUUCAUCAAACGGUGUACGAAGUUUCAGCGUAGAUUUUAUGUCACGCUGAAGCUUCGUGCAC
Turning to B25, the binding signal in experiment [1] was -0.313 z-score; in experiment [2], 0.0261 z-score; in experiment [3] it was -0.0424 z-score.
